Chains of the proteins cited; added tags and fusions are not shown.
UniProt P07861, whole entry: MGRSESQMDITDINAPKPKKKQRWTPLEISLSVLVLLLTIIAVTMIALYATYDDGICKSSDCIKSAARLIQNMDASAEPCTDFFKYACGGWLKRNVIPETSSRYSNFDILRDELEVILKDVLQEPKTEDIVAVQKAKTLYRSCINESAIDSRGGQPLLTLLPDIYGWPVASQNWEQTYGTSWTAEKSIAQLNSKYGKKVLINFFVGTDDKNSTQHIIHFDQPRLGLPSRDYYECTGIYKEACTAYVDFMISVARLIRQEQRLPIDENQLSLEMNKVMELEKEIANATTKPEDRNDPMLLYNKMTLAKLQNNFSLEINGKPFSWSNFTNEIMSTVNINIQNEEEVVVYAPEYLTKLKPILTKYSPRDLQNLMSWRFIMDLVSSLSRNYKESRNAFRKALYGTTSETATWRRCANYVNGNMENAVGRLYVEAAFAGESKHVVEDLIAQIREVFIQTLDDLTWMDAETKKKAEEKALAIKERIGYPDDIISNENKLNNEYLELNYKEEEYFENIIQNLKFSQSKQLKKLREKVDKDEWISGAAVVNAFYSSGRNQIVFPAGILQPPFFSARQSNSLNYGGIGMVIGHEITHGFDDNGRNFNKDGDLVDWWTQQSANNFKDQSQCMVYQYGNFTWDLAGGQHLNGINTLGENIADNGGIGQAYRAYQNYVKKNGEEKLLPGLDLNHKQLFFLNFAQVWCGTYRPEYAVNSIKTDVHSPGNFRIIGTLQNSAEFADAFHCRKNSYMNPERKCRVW

The first test addresses enkephalinase A (Rattus norvegicus, UniProt P07861). The experiment in a line: Enkephalinase A inhibition, radiometric 3H-Met5-ENK degradation assay with TLC separation. The test is classed as biochemical, Sprague-Dawley rats. To be noted: read-out: Enkephalinase A Inhibition IC50; rat brain membrane enzyme, 40 nM 3H-Met5-ENK, 90 min at 37° C.; N.A. = No activity at <10^5 nM.
As for `C[C@H](NC(=O)[C@H](Cc1ccccc1)N[C@@H](CCc1ccccc1)C(=O)O)C(=O)O`, the IC50 stood at 90 nM. On the same count and under the same terms, under `C[C@H](NC(=O)[C@H](Cc1ccsc1)N[C@@H](CCc1ccccc1)C(=O)O)C(=O)O` stands 140 nM; under `CC(C)[C@H](N[C@@H](Cc1ccccc1)C(=O)N[C@@H](C)C(=O)O)C(=O)O`, 1340 nM; under `O=C(O)CCCNC(=O)[C@H](Cc1ccccc1)N[C@@H](Cc1ccccc1)C(=O)O`, 55 nM. Still for that read-out and setting: to `CO[C@@H](CNC(=O)[C@H](Cc1ccccc1)N[C@@H](Cc1ccccc1)C(=O)O)C(=O)O` belongs 17 nM.

On to `O=C(O)CCNC(=O)[C@H](Cc1ccc2ccccc2c1)N[C@@H](Cc1ccccc1)C(=O)O`, for which the IC50 amounted to 46 nM.

For the compound `O=C(O)CCNC(=O)[C@H](Cc1ccccc1)N[C@@H](Cc1ccc2ccccc2c1)C(=O)O`, the IC50 amounted to 16 nM. As to `O=C(O)C(CNC(=O)[C@H](Cc1ccccc1)N[C@@H](Cc1ccccc1)C(=O)O)Cc1ccccc1` (stereo partly shown), the IC50 was 6.3 nM.

Consider `O=C(O)CCNC(=O)[C@H](Cc1ccccc1)N[C@@H](Cc1ccc(Cl)cc1)C(=O)O`, for which the IC50 amounted to 22 nM. On the same count and under the same terms, to `CC(C)(C)C(=O)OCOC(=O)CCNC(=O)[C@H](Cc1ccccc1)N[C@@H](Cc1ccccc1)C(=O)O` belongs 580 nM.

With `C[C@H](NC(=O)[C@H](Cc1cccc2ccccc12)N[C@@H](CCc1ccccc1)C(=O)O)C(=O)O`, the IC50 is 30 nM. Same read-out and setting: to `CC(C)C[C@H](N[C@@H](Cc1ccccc1)C(=O)O)C(=O)N[C@@H](Cc1ccccc1)C(=O)O` belongs 140 nM. On to `C[C@H](NC(=O)[C@H](Cc1ccccc1)N[C@@H](CSCc1ccccc1)C(=O)O)C(=O)O`, for which the IC50 came out at 170 nM. Same read-out and setting: under `Cc1ccc(C[C@H](N[C@@H](Cc2ccccc2)C(=O)NCCC(=O)O)C(=O)O)cc1` [AB] stands 29 nM; under `O=C(O)CCNC(=O)[C@H](Cc1ccccc1)N[C@@H](Cc1cccc2ccccc12)C(=O)O`, 5 nM. Take `CO[C@H](CNC(=O)[C@H](Cc1ccccc1)N[C@@H](Cc1ccccc1)C(=O)O)C(=O)O`: the IC50 was 52 nM. As to `CC(CNC(=O)[C@H](Cc1ccccc1)N[C@@H](Cc1ccccc1)C(=O)O)C(=O)O` (stereo partly shown), the IC50 was 6.4 nM.

Take `O=C(O)CCNC(=O)[C@H](Cc1cccc2ccccc12)N[C@@H](Cc1ccccc1)C(=O)O`: the IC50 amounted to 90 nM. Still for that read-out and setting: to `C[C@H](NC(=O)[C@H](Cc1ccccc1)N[C@@H](CCCCNC(=O)OCc1ccccc1)C(=O)O)C(=O)O` belongs 220 nM.

Another test concerns Male CFl mice. The experiment in a line: Potentiation of the analgesic effects of (DAla2-Met5)-enkephalinamide (DAEAM), tail-flick test. As to conditions: icv; footnote 2: value is ED100; mouse tail-flick.
Take `O=C(O)C(CNC(=O)[C@H](Cc1ccccc1)N[C@@H](Cc1ccccc1)C(=O)O)Cc1ccccc1` (stereo partly shown): the “DAEAM Potentiation ED100 (route)” value came to 50 µg. Same read-out and setting: under `O=C(O)CCNC(=O)[C@H](Cc1ccc(-c2ccccc2)cc1)N[C@@H](Cc1ccccc1)C(=O)O` [AD] stands 50 µg.

The same test, now with this note: icv; mouse tail-flick, DAEAM icv, latency 30 min later.
`CC(CNC(=O)[C@H](Cc1ccccc1)N[C@@H](Cc1ccccc1)C(=O)O)C(=O)O` (stereo partly shown): the “DAEAM Potentiation ED50 (route)” value stood at 50 µg.

The test is the same for the next values; noted with them: po; mouse tail-flick, DAEAM icv, latency 30 min later; dose at which half the test animals displayed analgesia.
For the compound `CC(C)(C)C(=O)OCOC(=O)[C@H](Cc1ccccc1)N[C@@H](Cc1ccccc1)C(=O)NCCC(=O)OCc1ccccc1`, the “DAEAM Potentiation ED50 (route)” value came to 100 mg/k. Same read-out and setting: under `CCOC(=O)CCNC(=O)[C@H](Cc1ccccc1)N[C@@H](Cc1ccccc1)C(=O)OCOC(=O)C(C)(C)C` stands 100 mg/k. The same measure, in the same setting: under `Cc1ccccc1NC(=O)[C@H](Cc1ccccc1)N[C@@H](Cc1ccccc1)C(=O)NCCC(=O)OCOC(=O)C(C)(C)C` stands 100 mg/k; under `CC(CNC(=O)[C@H](Cc1ccccc1)N[C@@H](Cc1ccccc1)C(=O)OCc1ccccc1)C(=O)OCOC(=O)C(C)(C)C` (stereo partly shown), 100 mg/k.

Still in this test, the particulars now being: sc; footnote 2: value is ED100; mouse tail-flick.
For the compound `CC(C)(C)C(=O)OCOC(=O)CCNC(=O)[C@H](Cc1ccccc1)N[C@@H](Cc1ccccc1)C(=O)O`, the “DAEAM Potentiation ED100 (route)” value is listed as 100 mg/k.

Staying with this test, now noted: sc; mouse tail-flick, DAEAM icv, latency 30 min later; dose at which half the test animals displayed analgesia.
Turning to `Cc1ccc(C[C@H](N[C@@H](Cc2ccccc2)C(=O)NCCC(=O)O)C(=O)O)cc1` [AB], the “DAEAM Potentiation ED50 (route)” value was 10 mg/k.

The values are drawn from patent US4610816A (Schering Corporation, priority 1981, dated 1986).
